{
  "sequences": {"note": "By UniProt entry, the sequences of proteins in these tests, tags left out. Residues count along the entry.", "UniProt P22303, 32-617 isoform P22303-2 limits assumed": "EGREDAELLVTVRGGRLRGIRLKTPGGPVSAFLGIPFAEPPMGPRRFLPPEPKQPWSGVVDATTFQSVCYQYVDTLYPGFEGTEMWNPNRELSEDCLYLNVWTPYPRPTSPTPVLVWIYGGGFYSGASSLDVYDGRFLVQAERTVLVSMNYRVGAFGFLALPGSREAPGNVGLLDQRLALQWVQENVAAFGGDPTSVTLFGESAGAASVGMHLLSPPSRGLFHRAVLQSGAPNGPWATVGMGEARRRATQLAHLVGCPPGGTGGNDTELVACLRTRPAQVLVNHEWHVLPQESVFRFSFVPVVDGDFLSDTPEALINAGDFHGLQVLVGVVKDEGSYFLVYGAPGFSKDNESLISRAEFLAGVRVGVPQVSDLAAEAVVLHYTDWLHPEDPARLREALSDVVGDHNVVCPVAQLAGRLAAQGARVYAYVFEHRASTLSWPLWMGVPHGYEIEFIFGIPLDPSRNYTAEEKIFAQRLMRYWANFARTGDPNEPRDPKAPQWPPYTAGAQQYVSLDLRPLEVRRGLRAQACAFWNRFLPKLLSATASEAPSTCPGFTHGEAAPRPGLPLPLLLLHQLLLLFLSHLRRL", "UniProt P06276, 29-602": "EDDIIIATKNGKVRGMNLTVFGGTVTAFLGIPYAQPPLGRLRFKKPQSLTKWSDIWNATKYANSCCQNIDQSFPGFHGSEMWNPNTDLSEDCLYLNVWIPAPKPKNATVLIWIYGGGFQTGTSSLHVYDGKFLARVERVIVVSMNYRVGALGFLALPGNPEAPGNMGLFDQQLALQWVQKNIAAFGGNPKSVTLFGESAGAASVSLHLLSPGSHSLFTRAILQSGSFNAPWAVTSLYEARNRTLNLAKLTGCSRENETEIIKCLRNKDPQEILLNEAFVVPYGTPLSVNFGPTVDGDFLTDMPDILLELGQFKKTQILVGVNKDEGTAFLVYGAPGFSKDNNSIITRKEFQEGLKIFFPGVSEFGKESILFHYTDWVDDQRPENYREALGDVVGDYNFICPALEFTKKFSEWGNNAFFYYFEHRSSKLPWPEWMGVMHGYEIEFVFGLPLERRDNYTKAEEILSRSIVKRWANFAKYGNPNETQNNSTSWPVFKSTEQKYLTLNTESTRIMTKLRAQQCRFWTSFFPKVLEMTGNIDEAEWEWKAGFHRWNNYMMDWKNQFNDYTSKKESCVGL"},
  "source": "paper PMC9102502",
  "about": "“The Influence of Selected Antipsychotic Drugs on Biochemical Aspects of Alzheimer’s Disease” (International Journal of Molecular Sciences, 2022)",
  "key": {"[1]": {"biological_target": "T1, human erythrocyte acetylcholinesterase (Homo sapiens, UniProt P22303)", "T1 construct": "solution of hemolyzed erythrocytes diluted 400-fold; from tissue; host or cells: hemolyzed erythrocytes from blood of healthy human donors", "assay": "AChE inhibition, modified Ellman's method", "type": "biochemical", "details": "IC50 BuChE/IC50 AChE; theoretical values from extrapolated plots"}, "[2]": {"biological_target": "T2, human plasma butyrylcholinesterase (Homo sapiens, UniProt P06276)", "T2 construct": "The solution of plasma 200-fold diluted with 0.9% NaCl; from tissue; host or cells: citrated plasma from blood of healthy human donors", "assay": "BuChE inhibition, modified Ellman's method", "type": "biochemical", "details": "IC50 AChE/IC50 BuChE; theoretical values from extrapolated plots"}, "[3]": {"biological_target": "AChE (Homo sapiens, UniProt P22303)", "assay": "Synergism of antipsychotics with donepezil/rivastigmine (binary mixtures), AChE;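 further: antipsychotic concentration kept fixed across all measurements, selected from estimated therapeutic plasma levels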", "details": "ComboSyn"}, "[4]": {"biological_target": "BuChE (Homo sapiens, UniProt P06276)", "assay": "Synergism of antipsychotics with donepezil/rivastigmine (binary mixtures), BuChE;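 further: combination index derived by median-effect analysis of combined drug effects on the cholinesterase, with values below 1 meaning synergism, exactly 1 additivity and above 1 antagonism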", "details": "rivastigmine 0.25 μmol/L + antipsychotic at TPCmax; ComboSyn"}},
  "note": "Marks after values point to notes of the source that are not given here.",
  "data": [
    {"smiles": "OCCOCCN1CCN(C2=Nc3ccccc3Sc3ccccc32)CC1", "note": "[Quetiapine, quetiapine]", "values": [
      {"measurement": "SI AChE", "setting": "[1]", "result": "0.009 *"},
      {"measurement": "SI BuChE", "setting": "[2]", "result": "113 *"},
      {"measurement": "CI (combination index), AChE", "setting": "[3]; donepezil 0.005 μmol/L + antipsychotic at TPCmax, CI < 1 synergism, > 1 antagonism", "result": 1.83},
      {"measurement": "CI (combination index), AChE", "setting": "[3]; donepezil 0.01 μmol/L + antipsychotic at TPCmax", "result": 1.50},
      {"measurement": "CI (combination index), AChE", "setting": "[3]; donepezil 0.02 μmol/L + antipsychotic at TPCmax", "result": 1.23},
      {"measurement": "CI (combination index), AChE", "setting": "[3]; donepezil 0.05 μmol/L + antipsychotic at TPCmax", "result": 1.25},
      {"measurement": "CI (combination index), AChE", "setting": "[3]; donepezil 0.1 μmol/L + antipsychotic at TPCmax", "result": 1.24},
      {"measurement": "CI (combination index), AChE", "setting": "[3]; rivastigmine 5 μmol/L + antipsychotic at TPCmax", "result": 0.25},
      {"measurement": "CI (combination index), AChE", "setting": "[3]; rivastigmine 10 μmol/L + antipsychotic at TPCmax", "result": 0.37},
      {"measurement": "CI (combination index), AChE", "setting": "[3]; rivastigmine 15 μmol/L + antipsychotic at TPCmax", "result": 0.39},
      {"measurement": "CI (combination index), AChE", "setting": "[3]; rivastigmine 25 μmol/L + antipsychotic at TPCmax", "result": 0.49},
      {"measurement": "CI (combination index), AChE", "setting": "[3]; rivastigmine 40 μmol/L + antipsychotic at TPCmax", "result": 0.40},
      {"measurement": "CI (combination index), AChE", "setting": "[3]; rivastigmine 50 μmol/L + antipsychotic at TPCmax", "result": 0.57},
      {"measurement": "CI (combination index), AChE", "setting": "[3]; rivastigmine 75 μmol/L + antipsychotic at TPCmax", "result": 0.61},
      {"measurement": "CI (combination index), AChE", "setting": "[3]; rivastigmine 100 μmol/L + antipsychotic at TPCmax", "result": 0.59},
      {"measurement": "CI (combination index), BuChE", "setting": "[4]", "result": 1.02}
    ]}
  ]
}
